Experimental data taken from ChEMBL document CHEMBL1148324 (J Med Chem, 2004).

Experiment: Selectivity expressed as the ratio of pEC50 (SLPD) and pEC50 (FSLPD)
Format: functional

CCC(C)(C)/N=C(\NC#N)Nc1cccnc1
Selectivity: 3.9
